The target in this assay is human BACE1 (Homo sapiens, UniProt P56817). Briefly: BACE-1 fluorescent kinetic assay (cleavage of peptide substrate WABC-6). Conditions: 10 nM enzyme, 25 μM substrate WABC-6, Na-Acetate pH 4.5, room temperature. Type of assay: biochemical. The procedure:
Evaluation of BACE-1 Binding Affinity of Test Compounds
Fluorescent Kinetic Assay
Dilution and mixing steps: total reaction volume: 100 μL
100 μM substrate dilution in 1×PBS was prepared, and
Fluorescence Readings: Readings at λex 320 nm and λem 420 nm are taken every 40 sec for 30 min at room temperature and the linear slope for substrate cleavage rate (vi) determined.

Protein sequences, listed by entry. Tags and fused reporters are not part of them. Residues count along the entry.
UniProt P56817, 46-501: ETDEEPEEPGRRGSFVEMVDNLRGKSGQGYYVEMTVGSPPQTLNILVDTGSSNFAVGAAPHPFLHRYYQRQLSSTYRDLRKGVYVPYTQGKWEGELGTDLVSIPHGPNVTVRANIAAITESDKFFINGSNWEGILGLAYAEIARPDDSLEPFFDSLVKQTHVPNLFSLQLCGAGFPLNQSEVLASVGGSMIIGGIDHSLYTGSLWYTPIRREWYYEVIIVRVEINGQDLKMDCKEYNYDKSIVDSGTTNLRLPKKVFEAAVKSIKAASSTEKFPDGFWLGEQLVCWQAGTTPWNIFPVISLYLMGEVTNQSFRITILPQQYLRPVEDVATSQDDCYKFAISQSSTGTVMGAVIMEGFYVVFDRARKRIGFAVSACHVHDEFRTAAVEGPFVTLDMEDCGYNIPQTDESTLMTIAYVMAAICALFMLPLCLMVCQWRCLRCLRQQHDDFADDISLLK

In the case of “2-{2-Amino-6-[2-(2-chloro-phenyl)-5-(4-pentyloxy-phenyl)-pyrrol-1-ylmethyl]-pyridin-3-yloxy}-ethanol hydrochloride [Example 46]”, the IC50 – broadly, the point on the concentration scale where inhibition reaches its midpoint – is 110 to 1000 nM.

The values above are taken from patent publication US7732457B2, “Amino-pyridines as inhibitors of β-secretase” (Wyeth LLC, priority 2005, dated 2010).
